By DC50 is commonly meant the concentration at which degradation of the target reaches its halfway point.

Protein sequences, listed by entry. Tags and fused reporters are not part of them.
UniProt P03372, whole entry: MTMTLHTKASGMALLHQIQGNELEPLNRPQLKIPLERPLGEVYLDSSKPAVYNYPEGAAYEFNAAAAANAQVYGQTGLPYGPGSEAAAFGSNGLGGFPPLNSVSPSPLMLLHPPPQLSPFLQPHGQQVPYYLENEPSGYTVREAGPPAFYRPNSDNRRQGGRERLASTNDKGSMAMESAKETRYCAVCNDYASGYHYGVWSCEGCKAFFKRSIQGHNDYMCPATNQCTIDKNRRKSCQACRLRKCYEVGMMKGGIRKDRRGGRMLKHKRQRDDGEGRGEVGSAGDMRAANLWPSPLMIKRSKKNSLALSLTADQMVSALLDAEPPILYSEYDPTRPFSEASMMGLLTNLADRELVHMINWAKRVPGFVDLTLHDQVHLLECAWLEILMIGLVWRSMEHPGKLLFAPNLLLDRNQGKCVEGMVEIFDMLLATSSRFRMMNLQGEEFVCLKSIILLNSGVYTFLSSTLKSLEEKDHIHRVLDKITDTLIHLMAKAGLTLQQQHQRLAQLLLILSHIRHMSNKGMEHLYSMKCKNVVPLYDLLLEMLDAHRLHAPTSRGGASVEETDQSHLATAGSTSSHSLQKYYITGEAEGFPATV

Where only a bound is given, the exact number is not on record here.

The target in this assay is ER (Homo sapiens, UniProt P03372). Description: ER degradation activity, in-cell western blot analysis in T47D cells. Conditions: read-out: Potency (DC50), 16 hours, Table A does not say which cell line (T47D or MCF7).

`O=C1CCC(N2C(=O)c3cc4c(cc3C2=O)CN(CC2(F)CCN(C(=O)C3CCN(c5ccc([C@@H]6c7ccc(O)cc7CC[C@@H]6c6ccccc6)cc5)CC3)CC2)C4)C(=O)N1` (stereo partly shown): the DC50 is more than 100 nM.

The values are drawn from patent US20240190880A1 (THE REGENTS OF THE UNIVERSITY OF MICHIGAN, priority 2021, published 2024).
